Reference: patent EP0977560B1, “IBUPROFEN THIOESTERS AS INHIBITORS OF Nf-kappaB-DEPENDENT PAIN AND INFLAMMATION MEDIATOR FORMATION” (PAZ Arzneimittel- Entwicklungsgesellschaft mbH, priority 1997, dated 1998)

Tested on: PGHS-2 (Cyclooxygenase-2)
Assay: Formation of PGHS-2 in LPS-induced monocytes (method after Brideau et al., human whole blood assay)
Format: cell-based
Settings: LPS-induced Monozyten, 24 Std.; R-Ibuprofenoyl-CoA 0.5, 0.25, 0.05 mM; Ibuprofen, razemisch 1.0, 0.1, 0.05 mM; Abbildung 2
Excerpt: Inkubation von LPS-induzierten Monozyten (24 Std.). […] Methode nach: BRIDEAU, C., KARGMAN, S., LIU, S., DALLOB, A.L., EHRICH, E.W., RODGER, I.W. & CHAN, C.C. […] A human whole blood assay for clinical evaluation of biochemical efficacy of cyclooxygenase inhibitors. Inflamm. Res., 45, 68-74.

CC(C)Cc1ccc(C(C)C(=O)O)cc1 (racemic) [razemischem Ibuprofen, Ibuprofen]
Bildung von PGHS-2 (Cyclooxygenase-2): im Gegensatz
